Assay results reported in patent publication EP1049676B1, “4- ARYL(PIPERIDIN-4-YL)] AMINOBENZAMIDES WHICH BIND TO THE DELTA-OPIOID RECEPTOR” (dated 1999).

What was measured:
opioid delta receptor = opioid delta receptor (Homo sapiens, UniProt P41143); assay: High Throughput Screening Assay for Delta-Opioid Receptor Binding ([3H]bremazocine competition, CHO cell membranes); conditions: percent inhibition of control binding at 25 µM test compound; [3H]bremazocine 2.4 nM; cloned human receptor in CHO cell membranes
δ-opioid receptor = δ-opioid receptor (Rattus norvegicus, UniProt P33533); assay: Rat Brain δ-Opioid Receptor Binding Assay ([3H]DPDPE, forebrain membranes); conditions: binding to the δ-opioid receptor, 25°C

Compound | %1 @ 25 µM (opioid delta receptor) [%] | Ki (δ-opioid receptor) [nM]
CCN(CC)C(=O)c1ccc(N(c2ccccc2)C2CCN(Cc3ccccc3)CC2)cc1 | 99 | –
CN1CCC(N(c2ccccc2)c2ccc(C(=O)N3CCCCC3)cc2)CC1 | 68 | –
CN1CCC(N(c2ccccc2)c2ccc(C(=O)N3CCOCC3)cc2)CC1 | 93 | –
CCCN1CCC(N(c2ccc(C(=O)N(CC)CC)cc2)c2cccc(OC(C)=O)c2)CC1 | 100 | –
CCN(C)C(=O)c1ccc(N(c2ccccc2)C2CCN(C)CC2)cc1 | 95 | –
CCN1CCC(N(c2ccc(C(=O)N3CCCCC3)cc2)c2cccc(F)c2)CC1 | 89 | –
CC(C)N(C(=O)c1ccc(N(c2cccc(F)c2)C2CCN(C)CC2)cc1)C(C)C | 97 | –
COc1cccc(N(c2ccc(C(=O)N3CCCCC3)cc2)C2CCN(C)CC2)c1 | 89 | –
CCN1CCC(N(c2ccc(C(=O)N(C)CC)cc2)c2cccc(F)c2)CC1 | 97 | –
CCCN(CCC)C(=O)c1ccc(N(c2cccc(F)c2)C2CCN(C)CC2)cc1 | 100 | –
CN1CCC(N(c2ccc(C(=O)N3CCOCC3)cc2)c2cccc(F)c2)CC1 | 77 | –
CCN1CCC(N(c2ccc(C(=O)N(CC)CC)cc2)c2cccc(F)c2)CC1 | 98 | –
CCN(C)C(=O)c1ccc(N(c2cccc(F)c2)C2CCN(C)CC2)cc1 | 96 | –
CCN1CCC(N(c2ccccc2)c2ccc(C(=O)N3CCOCC3)cc2)CC1 | 64 | –
CCCN(CCC)C(=O)c1ccc(N(c2ccccc2)C2CCN(C)CC2)cc1 | 101 | –
CCCN1CCC(N(c2ccc(C(=O)N(CC)CC)cc2)c2ccccc2OC)CC1 | 100 | –
CCN(CC)C(=O)c1ccc(N(c2ccccc2)C2CCN(C)CC2)cc1 | 100 | –
CCN1CCC(N(c2ccccc2)c2ccc(C(=O)N3CCCC3)cc2)CC1 | 88 | –
CCCN1CCC(N(c2ccc(C(=O)N3CCCC3)cc2)c2cccc(Cl)c2)CC1 | 101 | –
CN1CCC(N(c2ccccc2)c2ccc(C(=O)N3CCCC3)cc2)CC1 | 81 | –
CC(C)N(C(=O)c1ccc(N(c2ccccc2)C2CCN(C)CC2)cc1)C(C)C | 100 | –
COc1cccc(N(c2ccc(C(=O)N(C(C)C)C(C)C)cc2)C2CCN(C)CC2)c1 | 98 | –

Compound | %1 @ 25 µM (opioid delta receptor) [%] | Ki (δ-opioid receptor) [nM]
CCN1CCC(N(c2ccc(C(=O)N3CCCC3)cc2)c2cccc(F)c2)CC1 | 87 | –
COc1cccc(N(c2ccc(C(=O)N3CCOCC3)cc2)C2CCN(C)CC2)c1 | 70 | –
CCCN1CCC(N(c2ccccc2)c2ccc(C(=O)N(CC)CC)cc2)CC1 | 94 | 25
CCN1CCC(N(c2ccccc2)c2ccc(C(=O)N(C)CC)cc2)CC1 | 98 | –
CCCN(CCC)C(=O)c1ccc(N(c2cccc(OC)c2)C2CCN(C)CC2)cc1 | 100 | –
CCN1CCC(N(c2ccccc2)c2ccc(C(=O)N(CC)CC)cc2)CC1 | 100 | –
CCN1CCC(N(c2ccccc2)c2ccc(C(=O)N(C(C)C)C(C)C)cc2)CC1 | 100 | –
CN1CCC(N(c2ccc(C(=O)N3CCCC3)cc2)c2cccc(F)c2)CC1 | 85 | –
COc1cccc(N(c2ccc(C(=O)N3CCCC3)cc2)C2CCN(C)CC2)c1 | 91 | –
CCCN1CCC(N(c2ccccc2)c2cccc(C(=O)N(C)c3ccccc3)c2)CC1 | 41 | –
CCCN(CCC)C(=O)c1ccc(N(c2ccccc2)C2CCN(CC)CC2)cc1 | 100 | –
CCCN1CCC(N(c2ccc(C(=O)N(CC)CC)cc2)c2cccc(OC)c2)CC1 | 97 | –
CCN(C)C(=O)c1ccc(N(c2cccc(OC)c2)C2CCN(C)CC2)cc1 | 95 | –
CCN1CCC(N(c2ccccc2)c2ccc(C(=O)N3CCCCC3)cc2)CC1 | 92 | –
CCN(CC)C(=O)c1ccc(N(c2cccc(F)c2)C2CCN(C)CC2)cc1 | 97 | –
CCN(CC)C(=O)c1ccc(N(c2cccc(OC)c2)C2CCN(C)CC2)cc1 | 98 | –
CCN1CCC(N(c2ccc(C(=O)N(C(C)C)C(C)C)cc2)c2cccc(F)c2)CC1 | 88 | –
CCCN1CCC(N(c2ccc(C(=O)N(CC)CC)cc2)c2cccc(Cl)c2)CC1 | 102 | –
CN1CCC(N(c2ccc(C(=O)N3CCCCC3)cc2)c2cccc(F)c2)CC1 | 85 | –
CCN1CCC(N(c2ccc(C(=O)N3CCOCC3)cc2)c2cccc(F)c2)CC1 | 64 | –
CCCN(CCC)C(=O)c1ccc(N(c2cccc(F)c2)C2CCN(CC)CC2)cc1 | 101 | –
